Our source for the inhibition of the rate of NADH-dependent reduction in Cb5 by Cb5R minus a His6-tag, up to 2 μM of Aβ(25–35) values is article PMC10609148, “Hexa-Histidine, a Peptide with Versatile Applications in the Study of Amyloid-β(1–42) Molecular Mechanisms of Action” (Molecules, 2023).

Amino acid sequences for entries named in this document (tags omitted). Residues count along the entry.
UniProt P00387, 27-301: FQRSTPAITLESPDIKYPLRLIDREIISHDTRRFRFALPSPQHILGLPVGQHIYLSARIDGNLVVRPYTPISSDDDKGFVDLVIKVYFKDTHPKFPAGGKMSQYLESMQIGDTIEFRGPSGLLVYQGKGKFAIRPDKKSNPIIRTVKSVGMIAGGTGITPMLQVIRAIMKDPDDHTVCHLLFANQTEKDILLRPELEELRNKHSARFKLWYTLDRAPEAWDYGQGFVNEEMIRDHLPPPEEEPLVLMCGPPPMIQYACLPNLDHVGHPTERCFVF

This assay deals with human recombinant Cb5R minus a His6-tag (human) (UniProt P00387).

Aβ(25–35) (peptide): the inhibition of the rate of NADH-dependent reduction in Cb5 by Cb5R minus a His6-tag, up to 2 μM of Aβ(25–35) was less than 10%.
